Amino acid sequences for entries named in this document (tags omitted).
UniProt P23977, whole entry: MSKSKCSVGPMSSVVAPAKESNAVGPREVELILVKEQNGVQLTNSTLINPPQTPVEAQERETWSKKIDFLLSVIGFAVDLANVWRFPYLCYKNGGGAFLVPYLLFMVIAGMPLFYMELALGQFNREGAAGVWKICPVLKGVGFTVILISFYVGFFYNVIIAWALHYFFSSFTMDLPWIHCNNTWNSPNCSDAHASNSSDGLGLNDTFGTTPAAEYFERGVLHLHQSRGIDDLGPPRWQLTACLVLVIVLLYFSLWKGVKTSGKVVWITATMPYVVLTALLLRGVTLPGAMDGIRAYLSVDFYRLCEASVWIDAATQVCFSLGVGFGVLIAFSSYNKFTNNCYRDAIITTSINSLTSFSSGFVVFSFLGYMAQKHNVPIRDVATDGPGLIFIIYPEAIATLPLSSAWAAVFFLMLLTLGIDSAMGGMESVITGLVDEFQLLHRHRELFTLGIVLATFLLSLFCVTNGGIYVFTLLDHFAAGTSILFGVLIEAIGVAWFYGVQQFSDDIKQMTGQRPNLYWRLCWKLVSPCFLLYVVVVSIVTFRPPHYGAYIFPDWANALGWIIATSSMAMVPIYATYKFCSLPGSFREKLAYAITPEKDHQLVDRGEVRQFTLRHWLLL

In ChEMBL document CHEMBL1131002, “2beta-Substituted analogues of 4'-iodococaine: synthesis and dopamine transporter binding potencies” (J Med Chem, 1998):

Molecular target: Sodium-dependent dopamine transporter (Rattus norvegicus, UniProt P23977)
Assay: Inhibition of dopamine Transporter Affinity against rat whole brain using [3H]WIN-35428 as radioligand
Assay type: tissue-based

COC(=O)[C@@H]1C2CCC(C[C@@H]1OC(=O)c1ccc(I)cc1)N2C (stereo partly specified)
IC50: 2520 nM
